## Yeast mating assay 1: variants of the scFv Ab-14

Reference: Engelhart et al. 2022, doi:10.1038/s41597-022-01779-4. File: FLAb, binding data.

The target is the same throughout: PDVDLGDISGINAS, from the HR2 region of SARS-CoV-2 spike.

Parent scFv Ab-14: VH joined to VL by a 15-residue (Gly4Ser)3 linker. Changes lie in the light chain CDRs alone.
VH: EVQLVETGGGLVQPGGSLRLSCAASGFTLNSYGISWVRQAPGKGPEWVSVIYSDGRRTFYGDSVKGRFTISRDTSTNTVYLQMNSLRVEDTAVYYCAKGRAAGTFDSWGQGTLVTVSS
VL: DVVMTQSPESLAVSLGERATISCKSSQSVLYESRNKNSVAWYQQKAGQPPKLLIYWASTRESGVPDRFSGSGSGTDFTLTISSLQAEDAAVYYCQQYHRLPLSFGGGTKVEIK

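AAYL50 was designed without a model: most single CDR substitutions and a random sample of double and triple ones. AlphaSeq pools MATa yeast showing the antibodies with MATalpha yeast showing the peptide. Binding brings cells together so that they mate, and sequencing counts the barcode pairs among the diploids. Read counts were normalised to the haploid input and turned into Kd by a linear fit to BCL2-family pairs of known affinity, for each replicate. There are three technical replicates.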

Substitutions are numbered in sequence along the VL above, starting at 1 (not Kabat).
The read-out is the apparent dissociation constant on a log10 scale (nM): the lower, the stronger.
Where no diploid with the target was found in that replicate, the entry reads "nd": below detection, most likely a poor binder, though not proof of it.
Parent in this assay: reference entry 0.65, copy in this library 1.68.

| changes | replicates, log10 nM | empty controls |
|---|---|---|
| R34Q/T59S/P101T | nd / nd / 2.99 | 0 of 9 |
| Q95W/P101T/L102Q | nd / nd / nd | 2 of 9 (3.66) |
| S33K/R60I/R99Q | nd / nd / 3.78 | 0 of 9 |
| Q27I/S58P/S62P | nd / nd / nd | 0 of 9 |
| A40G/R99P/L100R | nd / nd / nd | 0 of 9 |
| S28G/W56S/P101I | nd / 4.21 / nd | 3 of 9 (4.00) |
| L30S/L100S/P101I | nd / 3.67 / nd | 1 of 9 (3.58) |
| L30G/N35E/S103Y | nd / nd / nd | 0 of 9 |
| S25H/Q27E/Q96C | 2.25 / 1.96 / 2.45 | 3 of 9 (3.85) |
| Q27K/Y31C/R60C | nd / nd / nd | 1 of 9 (3.59) |
| S28T/N35R | nd / 2.28 / 3.29 | 0 of 9 |
| S28N/K36A/S38R | 0.83 / 1.01 / 1.36 | 0 of 9 |
| S25H/E32L/N35Q | 2.44 / 2.68 / 2.41 | 2 of 9 (4.71) |
| S26L/R34V/L102T | nd / nd / nd | 0 of 9 |
| S33A/A40I/S58E | nd / 3.87 / nd | 0 of 9 |
| A57Y/Q95G/P101N | nd / nd / nd | 1 of 9 (3.69) |
| Y31C/E32I/T59C | 4.57 / 4.52 / nd | 3 of 9 (3.92) |
| E32L/E61M | 1.81 / 1.66 / 2.77 | 0 of 9 |
| S25T/L102H | nd / nd / nd | 0 of 9 |
| S26K/V39Y/T59N | 6.04 / 3.36 / 5.80 | 1 of 9 (3.83) |
| A40C/R60L/S62K | 3.88 / 3.83 / 4.46 | 2 of 9 (4.52) |
| S26Y/A57V/R60A | nd / nd / nd | 1 of 9 (4.26) |
| Q27I/A40E/L100R | nd / 3.94 / 5.40 | 7 of 9 (4.53) |
| S33L/S58L/L102H | nd / nd / nd | 2 of 9 (4.31) |
| S38L/Q95I/R99M | nd / nd / nd | 0 of 9 |
| S38R/Q95C/H98D | 3.52 / nd / 3.40 | 0 of 9 |
| S28H/S58K/H98D | 2.35 / 2.83 / 2.52 | 2 of 9 (3.77) |
| K24W/S26K/R34P | nd / nd / nd | 1 of 9 (2.88) |
| S38A/S62K/S103H | nd / nd / 2.98 | 0 of 9 |
| V29D/Q95K/H98K | nd / nd / nd | 2 of 9 (5.48) |
| V39D/P101M | nd / 4.64 / nd | 3 of 9 (3.43) |
| E32A/E61W/L102N | nd / nd / nd | 0 of 9 |
| S25M/R34S/L100V | 1.47 / 1.58 / 1.68 | 6 of 9 (4.40) |
| R34P/R99P/L102N | 2.04 / 2.07 / 2.11 | 5 of 9 (3.87) |
| S26K/E32G/S33D | 0.13 / 0.87 / 0.85 | 0 of 9 |
| S26I/S28E/V29L | 1.53 / 2.71 / 2.35 | 1 of 9 (3.32) |
| S33E/R34W/N35D | 0.77 / 0.92 / 0.87 | 6 of 9 (5.04) |
| N35S/Y97H/S103K | 4.33 / nd / nd | 0 of 9 |
| V29H/N35V/T59G | 3.44 / nd / nd | 1 of 9 (4.71) |
| S25F/A40I | 4.91 / 3.01 / nd | 1 of 9 (4.05) |
| K36W/T59P/P101W | nd / 3.60 / nd | 1 of 9 (5.53) |
| L102R/S103R | 0.93 / 0.93 / 1.01 | 2 of 9 (5.44) |
| L30K/R60K/H98C | 3.60 / 2.83 / 4.95 | 1 of 9 (4.43) |
| S26T/K36I/V39G | nd / nd / nd | 1 of 9 (3.22) |
| E32L/S33H/S62V | 2.63 / 2.62 / 2.47 | 4 of 9 (4.43) |
| K24Y/K36S/T59Q | 1.80 / 2.79 / 2.25 | 0 of 9 |
| S25M/K36V/R99E | 0.70 / 1.05 / 0.83 | 0 of 9 |
| S28C/Y31V/L100F | nd / nd / nd | 0 of 9 |
| L30G/S62T/L100A | nd / nd / nd | 0 of 9 |

From the list, the first 7 with no signal in any replicate:

| changes | replicates, log10 nM | empty controls |
|---|---|---|
| Q95W/P101T/L102Q | nd / nd / nd | 2 of 9 (3.66) |
| Q27I/S58P/S62P | nd / nd / nd | 0 of 9 |
| A40G/R99P/L100R | nd / nd / nd | 0 of 9 |
| L30G/N35E/S103Y | nd / nd / nd | 0 of 9 |
| Q27K/Y31C/R60C | nd / nd / nd | 1 of 9 (3.59) |
| S26L/R34V/L102T | nd / nd / nd | 0 of 9 |
| A57Y/Q95G/P101N | nd / nd / nd | 1 of 9 (3.69) |

Three control strains display no target. For library AAYL50, 18% of the pairings with them gave a signal, with a median of 4.19 and one signal in twenty below 2.99, so weak values seen in few replicates may be background. Also given: how often the same scFv was detected with the empty control strains, with their mean in brackets.